Data taken from ChEMBL document CHEMBL3352590, “How a β-D-glucoside side chain enhances binding affinity to thrombin of inhibitors bearing 2-chlorothiophene as P1 moiety: crystallography, fragment deconstruction study, and evaluation of antithrombotic properties” (J Med Chem, 2014).

Biological target: Prothrombin (Bos taurus, UniProt P00735)
Assay: Inhibition of bovine thrombin assessed as reduction in hydrolysis of chromogenic substrate S-2238 by Lineweaver-Burk analysis

SMILES: CC(C)N1CCC(C(=O)Nc2ccccc2OCc2cc(-c3ccc(Cl)s3)on2)CC1
- pKi: 7.74

pKi: −log10 of the molar value.
